Test results published in US11312773B2, “Anti-PD-L1 antibody” (Fuso Pharmaceutical Industries, Ltd., priority 2016, dated 2022).

Key:
[1] = tested on: bovine CD3-positive T cells; test: Biological activity test: proliferation of bovine T cells co-cultured with bovine PD-L1 expressing cells (CFSE); format: cell-based; details: 6-day co-culture, anti-CD3/anti-CD28 stimulation
Protocol: Briefly, bovine PBMCs isolated from peripheral blood of healthy cattle were suspended in PBS to give a concentration of 10×10^6 cells/ml, and reacted with carboxyfluorescein succinimidyl ester (CFSE) at room temperature for 20 min. […] After washing, the PBMCs were reacted with anti-mouse IgG1 microbeads (Miltenyi Biotec) at 4° C. for 15 min, followed by isolation of CD3-positive T cells using autoMACS™ Pro(Miltenyi Biotec). To the isolated CD3-positive T cells, anti-bovine CD3 mouse antibody (WSU Monoclonal Antibody Center) and anti-bovine CD28 mouse antibody (Bio-Rad) were added. […] As a control for antibodies, serum-derived bovine IgG (Sigma-Aldrich) was used; as a control for PD-L1 expressing cells. EGFP expressing cells transfected with pEGFP-N2 were used. After a 6-day coculture, cells were harvested and reacted with anti-bovine CD4 mouse antibody and anti-bovine CD8 mouse antibody (Bio-Rad) at room temperature for 30 min. For the labeling of antibodies, Zenon Mouse IgG1 Labeling Kits (Life Technologies) or Lightning-Link Kit (Innova Biosciences) was used. For analysis, FACS Verse (BD Biosciences) was used. For washing operation after culturing and dilution of antibody, PBS supplemented with 1% bovine serum albumin (Sigma-Aldrich) was used.

[2] = target: T1, bovine PD-L1 expressing cells (Bos taurus, UniProt C5NU11); test: Binding specificity to bovine PD-L1 expressing cells by flow cytometry
T1 construct: expressed in transfected cells; host or cells: CHO-DG44
T1 sequence (C5NU11 19-289): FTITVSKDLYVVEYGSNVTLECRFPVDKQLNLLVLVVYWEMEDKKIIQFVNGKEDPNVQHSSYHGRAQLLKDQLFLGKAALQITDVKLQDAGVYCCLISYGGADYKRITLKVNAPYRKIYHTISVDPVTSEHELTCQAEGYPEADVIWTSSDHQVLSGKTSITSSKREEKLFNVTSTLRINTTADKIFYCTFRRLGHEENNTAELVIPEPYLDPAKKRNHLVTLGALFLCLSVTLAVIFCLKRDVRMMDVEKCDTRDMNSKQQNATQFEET
Protocol: Bovine PD-L1 membrane expressing cells were prepared by the procedures described below. First, 2.5 μg of pEGFP-N2-boPD-L1 or pEGFP-N2 (negative control) was introduced into 4×10^6 CHO-DG44 cells using Lipofectamine LTX (Invitrogen). Forty-eight hours later, the medium was exchanged with CD DG44 medium (Life Technologies) containing G418 (Enzo Life Science) 800 μg/ml, GlutaMAX supplement (Life Technologies) 20 ml/L, and 10% Pluronic F-68 (Life Technologies) 18 ml/L, followed by selection and cloning by limiting dilution (bovine PD-L1 expressing cell clone). In order to confirm the expression of bovine PD-L1 in the thus prepared expressing cell clone, intracellular localization of EGFP was visualized with an inverted confocal laser microscope LSM700 (ZEISS).
After washing, APC-labeled anti-rat Ig goat antibody (Southern Biotech) or Alexa Fluor 647-labeled anti-bovine IgG (H+L) goat F(ab′)2 (Jackson ImmunoResearch) was reacted at room temperature for 30 min. As negative control antibody, rat IgG2a (k) isotype control (BD Biosciences) or bovine IgG1 antibody (Bethyl) was used. After washing, each rat antibody or rat-bovine chimeric antibody bound to cell surfaces was detected by FACS Verse (BD Biosciences). For every washing operation and dilution of antibody, PBS supplemented with 1% bovine serum albumin (Sigma-Aldrich) was used.

B1: ch4G12: rat-bovine chimeric anti-bovine PD-L1 antibody, 4G12 variable regions, mutated bovine IgG1 and Igλ constant regions; SEQ ID NOS: 105 and 106 (protein)
light: MESQTHVLISLLLSVSGTYGDIAITQSPSSVAVSVGETVTLSCKSSQSLLYSENQKDYLGWYQQKPGQTPKPLIYWATNRHTGVPDRFTGSGSGTDFTLIISSVQAEDLADYYCGQYLVYPFTFGPGTKLELKQPKSPPSVTLFPPSTEELNGNKATLVCLISDFYPGSVTVVWKADGSTITRNVETTRASKQSNSKYAASSYLSLTSSDWKSKGSYSCEVTHEGSTVTKTVKPSECS
heavy: MGWSQIILFLVAAATCVHSQVQLQQSGAELVKPGSSVKISCKASGYTFTSNFMHWVKQQPGNGLEWIGWIYPEYGNTKYNQKFDGKATLTADKSSSTAYMQLSSLTSEDSAVYFCASEEAVISLVYWGQGTLVTVSSASTTAPKVYPLSSCCGDKSSSTVTLGCLVSSYMPEPVTVTWNSGALKSGVHTFPAVLQSSGLYSLSSMVTVPGSTSGQTFTCNVAHPASSTKVDKAVDPTCKPSPCDCCPPPPVAGPSVFIFPPKPKDTLTISGTPEVTCVVVDVGHDDPEVKFSWFVDDVEVNTATTKPREEQFNSTYRVVSALRIQHQDWTGGKEFKCKVHNEGLPSSIVRTISRTKGPAREPQVYVLAPPQEELSKSTVSLTCMVTSFYPDYIAVEWQRNGQPESEDKYGTTPPQLDADSSYFLYSKLRVDRNSWQEGDTYTCVVMHEALHNHYTQKSTSKSAGK
modifications: chimeric L chain; chimeric H chain
- Effect on suppression of T cell proliferation by bovine PD-L1 expressing cells [1]: inhibits this suppression in CD4-positive T cells
- Binding to bovine PD-L1 expressing cells [2]: binds to bovine PD-L1 expressing cells in the same manner as rat anti-bovine PD-L1 antibody 4G12
